The values below are quoted from earlier work in patent publication US11124517B2, “Crystal form of Baricitinib and preparation method thereof” (CRYSTAL PHARMACEUTICAL (SUZHOU) CO., LTD., priority 2017, dated 2021).

For this data set, the system named is JAK1 and JAK2. The settings on record: cited from earlier work.

Take `CCS(=O)(=O)N1CC(CC#N)(n2cc(-c3ncnc4[nH]ccc34)cn2)C1` [Baricitinib]: the “Selectivity for JAK1 and JAK2 over JAK3” value was 100 fold.
